# Screening results from PubChem BioAssay.
# In the library only some 16% were active in any assay of this set; here they are far more common.
# TDP1 cell noCPT = qHTS for Inhibitors of human tyrosyl-DNA phosphodiesterase 1 (TDP1): qHTS in cells in absence of CPT; DT40 Tdp1-/- hTDP1 cells, no CPT, ATP luminescence, 48 h; Potency, µM (highest dose often 46.2 µM), without a hit: at the top dose activity change, negative = growth inhibition, most hits filed as inhibitors; hit rate 15% among 420,000; AID 686978, 2013; note: potency is the fitted concentration of half-maximal effect; % is set by controls: 0 for no effect and ±100 for the full control effect; nearly all actives have a fitted effect of over 55% in size
#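 Chicken DT40 Tdp1-/- cells complemented with human TDP1, screened without camptothecin (DMSO vehicle only), 400 cells/well. Compounds pin-transferred, cells incubated at 37 °C for at least 48 hr. Growth read as ATP-dependent luminescence (CellTiter-Glo, 30 min at RT).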
# TDP1 inh = TDP1 (human) enzyme inhibition. recombinant TDP1, AlphaScreen DNA substrate cleavage. Q9NUW8. AID 485290. Potency, µM (top dose mostly 130 µM), for the others: at the top dose activity change, negative = inhibition, hits mostly inhibitors. hit rate 0.28% among 350,000; note: potency is the fitted concentration of half-maximal effect; % is set by controls: 0 for no effect and ±100 for the full control effect; nearly all actives have a fitted effect of over 40% in size
#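 AlphaScreen read-out: signal falls as enzyme removes the 3' tyrosine-FITC from a 5'-biotinylated DNA oligo (15 nM, 5 min, RT). Enzyme was E. coli-made recombinant Tdp1 at 1 nM, exposed to compound for 15 min beforehand; beads 10 ug/ml, 10 min.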
# miR-21 reporter = raises the signal of a miR-21 reporter | HeLa miR-21 FLuc reporter, luciferase, 48 h | Potency, µM (doses to about 38.3 µM), for the others: at the highest dose reporter change, positive = more light | 340,000 tested, under 10 active | AID 2288; active = well fitted rising curve with a large enough effect; inconclusive = small, poorly fitted or top-dose-only effect; inactive = no such curve, though single readings can be large or run the other way;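 also: % of control where 0% means no effect; miR-21 action dims this reporter so a rising signal means less miR-21 action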
#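 HeLa cells stably expressing CMV-driven firefly luciferase with a downstream miR-21 binding sequence, endogenously expressing miR-21, were treated with titrations (up to about 40uM final) for 48 hours at 37 degree Celsius. Luciferase luminescence was read after lysis.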
# uPA generation = inhibitors of cell surface uPA generation. cell surface uPA generation assay, qHTS. Potency, µM (doses to about 38.3 µM), for the others: at the highest dose activity change, negative = inhibition, usual class: inhibitors. hit rate 0.31% among 330,000; active = well fitted inhibition curve with a large enough effect; inconclusive = small, poorly fitted or top-dose-only effect; inactive = no such curve, though single readings can be large or run the other way; tested in mouse RAW 264.7 cells; note: potency is the fitted concentration of half-maximal effect; % is set by controls: 0 for no effect and ±100 for the full control effect; nearly all actives have a fitted effect of over 55% in size
# DT40 TDP1 CPT = growth inhibition of DT40 Tdp1-/-;hTDP1 cells with camptothecin (screen for TDP1 inhibitors); chicken DT40 Tdp1-/-;hTDP1 cells + 20 nM CPT, ATP luminescence, 48 h; hit rate 12% among 420,000; Potency, µM (titrated, usually from 46.2 µM), for inactives: at the highest dose activity change, negative = growth inhibition, actives largely listed as inhibitors; note: potency is the fitted concentration of half-maximal effect; % is set by controls: 0 for no effect and ±100 for the full control effect; nearly all actives have a fitted effect of over 55% in size
#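 Cell growth measured by CellTiter-Glo luminescence after a minimum 48 h, 37 C compound exposure with 20 nM CPT in Tdp1-knockout DT40 cells stably expressing hTDP1, seeded 400/well; qHTS titration format.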
# * marks the source's active call; other numbers are inactive results; ? = inconclusive; . = not tested or not shown; ! = not active in a repeat. Unless noted, calls come from the whole dose curve; as a rule, active = well fitted curve in the direction sought with a large enough effect; inconclusive = small, poorly fitted or top-dose-only effect, or another doubt; inactive = no such curve, though single readings can be large; an effect the other way counts as inactive or inconclusive.
# Abbreviations: A = TDP1 cell noCPT; B = TDP1 inh; C = miR-21 reporter; D = uPA generation; E = DT40 TDP1 CPT
Fc1ccc(F)c(Nc2c3c(nc4ccc(Cl)cc24)CCC3)c1
  A = ?	B = 4%	C = 19%	D = .	E = 16µM*

Cc1cc(C(=O)NC2CC(C)(C)Cc3c2cnn3-c2ccc(F)cc2)nn1C (configuration not stated)
  A = ?	B = 2%	C = -17%	D = -4%	E = ?

Cc1cccc(OCC(=O)Nc2ccc3c(c2)nc(CN2CCCCC2)n3C)c1
  A = ?	B = 10%	C = 7%	D = -10%	E = ?

O=c1cc(CO)[nH]cc1OCc1ccccc1
  A = -24%	B = -6%	C = 0%	D = -3%	E = 4%

O=[N+]([O-])c1ccc(Cn2cc(-c3cccc(C(F)(F)F)c3)nn2)cc1
  A = 16µM*!	B = .	C = 0%	D = 8%	E = ?

O=C1c2ccccc2C(=O)c2cc(Cn3cc(-c4cccc(C(F)(F)F)c4)nn3)ccc21
  A = -9%	B = .	C = .	D = .	E = ?

CC1=C(C(=O)N2CCOCC2)C(c2cccc(C)c2)NC(=S)N1 (configuration not stated)
  A = -4%	B = 1%	C = -3%	D = 10%	E = -20%

CC(=O)Nc1cccc(-c2csc(Nc3ccc(Cl)cn3)n2)c1
  A = ?	B = 5%	C = -1%	D = -16%	E = 23µM*

Cc1ccc(Nc2nc(-c3ccc(O)c(O)c3)cs2)nc1
  A = 1.3µM*	B = 7%	C = -71%	D = -17%	E = 1µM*

CC(=O)Nc1ccc(-c2csc(Nc3ccc(Cl)cn3)n2)cc1
  A = ?	B = -8%	C = 1%	D = 8%	E = ?

Cc1ccc(Nc2nc(-c3ccc(F)cc3)cs2)nc1
  A = ?	B = .	C = -43%	D = -10%	E = ?

COc1ccccc1Oc1ncnc2c1cnn2-c1ccccc1
  A = ?	B = -3%	C = -76%	D = 0%	E = 11%

COc1cc(C(C)=O)ccc1Oc1ncnc2c1cnn2-c1ccc(F)cc1
  A = 9.2µM*	B = -3%	C = -72%	D = 9%	E = ?

COc1ccc(Br)c(C(=O)OCC(=O)NC(=O)NC2CCCC2)c1
  A = ?	B = -4%	C = .	D = 5%	E = ?

COCCN(CCOC)S(=O)(=O)c1ccc(C(=O)Nc2sc3c(c2C(=O)OC)CCN(C)C3)cc1
  A = ?	B = 10%	C = -1%	D = .	E = -13%

CCOC(=O)c1c(NC(=O)c2ccccc2C(=O)O)sc2c1CCCC2
  A = -1%	B = .	C = 5%	D = -3%	E = 0%

CCOC(=O)c1c(NC(=O)C2CCCN(S(=O)(=O)c3ccccc3)C2)sc2c1CCCC2 (configuration not stated)
  A = 9.2µM*	B = 5%	C = -1%	D = -1%	E = 8.2µM*

CCOC(=O)c1c(NC(=O)c2ccc(S(=O)(=O)N3CCC(C)CC3)cc2)sc2c1CCN(C)C2
  A = 3.7µM*	B = 5%	C = 25%	D = .	E = 3.7µM*

CCOC(=O)c1c(NC(=O)c2ccc(S(=O)(=O)N(C)C)cc2)sc2c1CCN(C)C2
  A = 16µM*	B = 0%	C = -2%	D = .	E = 23µM*

CCOC(=O)N1CCN(S(=O)(=O)c2ccc(C(=O)Nc3sc4c(c3C(=O)OC)CCN(C)C4)cc2)CC1
  A = ?	B = 8%	C = -10%	D = -9%	E = ?

CCOC(=O)c1c(NC(=O)c2ccc(S(=O)(=O)N(CC(C)C)CC(C)C)cc2)sc2c1CCN(C(=O)OCC)C2
  A = 0.0073µM*	B = 3%	C = 0%	D = .	E = -34%

CCCCc1nn2c(=O)cc(COC(=O)C3CCCCC3)nc2s1
  A = -16%	B = 6%	C = 0%	D = .	E = -25%

COc1cccc(NC(=O)NCc2ccccn2)c1
  A = 13%	B = 0%	C = -18%	D = -15%	E = 0%

O=C(C1CC(=O)N(C2CCCC2)C1)N1CCN(c2ccc(F)cc2)CC1 (configuration not stated)
  A = -18%	B = .	C = .	D = 6%	E = -5%

Cc1ccc(-c2cc3nn(-c4ccccc4)c(N)c3c(=O)o2)cc1
  A = 21µM*	B = 2%	C = -21%	D = -5%	E = ?

O=c1[nH]c(CN2CCCC2)nc2sc3c(c12)CCC3
  A = -1%	B = 0%	C = -2%	D = 2%	E = -28%

Cc1ccc2c(c1)c(/C=C/c1cc[n+](C)cc1)c(C)n2C
  A = 0.41µM*	B = .	C = ?	D = -1%	E = 0.52µM*

Cc1ccc2[nH]c(C)c(/C=C/c3cc[n+](C)cc3)c2c1
  A = 2.6µM*	B = .	C = 29%	D = -8%	E = 3.3µM*

# Some of the entries so far, in CSV form:
structure,TDP1 cell noCPT,TDP1 inh,miR-21 reporter,uPA generation,DT40 TDP1 CPT
COCCN(CCOC)S(=O)(=O)c1ccc(C(=O)Nc2sc3c(c2C(=O)OC)CCN(C)C3)cc1,?,10%,-1%,.,-13%
O=c1cc(CO)[nH]cc1OCc1ccccc1,-24%,-6%,0%,-3%,4%
Cc1ccc2c(c1)c(/C=C/c1cc[n+](C)cc1)c(C)n2C,0.41µM*,.,?,-1%,0.52µM*
